The values below come from patent publication US12031152B2, “Nutrient media for the production of slaughter-free meat” (Upside Foods, Inc., priority 2020, dated 2024).

For data set [1] the following is noted: cited from earlier work.
Data set [2] in a line: ADI of trace elements and other components. The text has this: Several trace elements are essential to cell metabolism and growth. […] As a novel alternative to formulating trace elements directly, the present disclosure discloses the identification and testing of food-safe complexes that innately contain trace elements.

For FERRIC NITRATE-9H2O, the “Safe Reference Level for Human Dietary Intake: Nitrate ADI” value in data set [1] was “Nitrate ADI = 3.7 mg/kg bw/day”.
Turning to HYPOXANTHINE-NA, in data set [2], the ADI turned out to be 0.3 mg/kg bw-day.
Same read-out and setting: as for SODIUM METAVANADATE, the figure is 0.274 mg/kg bw-day.
